Test system: MOG induced EAE in C57 BI mice
Assay: Interferon-β s.c. daily alone or in combination with laquinimod in chronic MOG induced EAE
Format: in vivo, C57BL/6 mice
Details: for Activity compared to Laquinimod: Table 6; for % inhibition 1 (incidence) / % inhibition 2 (MMS) / % inhibition 3 (GMS); Activity / % inhibition 3 (GMS): compared to vehicle
[1] = IFN-β 50,000 IU/mouse SC QD, listed as IFN beta
[2] = IFN-β 500,000 IU/mouse SC QD, Day 1 to 7 (prophylactic)
[3] = IFN-β 500,000 IU/mouse SC QD, listed as IFN beta
[4] = IFN-β 500,000 IU/mouse, Day 8 to 30 (therapeutic)

B1: Interferon beta-1a (protein, UniProt P01574 22-187, looked up)
Interferon beta: MSYNLLGFLQRSSNFQCQKLLWQLNGRLEYCLKDRMNFDIPEEIKQLQQFQKEDAALTIYEMLQNIFAIFRQDSSSTGWNETIVENLLANVYHQINHLKTVLEEKLEKEDFTRGKLMSSLHLKRYYGRILHYLKAKEYSHCAWTIVRVEILRNFYFINRLTGYLRN
notes: Interferon beta-1a (IFN-β) (Rebif®, 44 μg/0.5 ml/syringe)
Activity compared to Laquinimod (IFN beta 50,000 IU/mouse): 15%
Activity compared to Laquinimod (IFN beta 500,000 IU/mouse): 55%
GMS value (group mean score) (IFN-β 50,000 IU/mouse SC QD): 1.7 ± 1.0
Incidence (IFN-β 50,000 IU/mouse SC QD): 11/13
MMS value (mean maximal score) (IFN-β 50,000 IU/mouse SC QD): 2.6 ± 1.4
Mean Duration (IFN-β 50,000 IU/mouse SC QD): 15.4 ± 7.8 days
Mean Onset (IFN-β 50,000 IU/mouse SC QD): 14.9 ± 7.3 days
Mortality (IFN-β 50,000 IU/mouse SC QD): 0/13
% inhibition 1 (incidence) (IFN-β 50,000 IU/mouse SC QD): 15.4%
% inhibition 2 (MMS) (IFN-β 50,000 IU/mouse SC QD): 18.8%
% inhibition 3 (GMS); Activity (IFN-β 50,000 IU/mouse SC QD): 15%
% inhibition 3 (GMS); Activity [1]: 15%
GMS value (group mean score) [1]: 1.7
GMS value (group mean score) (IFN-β 500,000 IU/mouse SC QD): 0.9 ± 0.7
Incidence (IFN-β 500,000 IU/mouse SC QD): 12/13
MMS value (mean maximal score) (IFN-β 500,000 IU/mouse SC QD): 1.7 ± 1.0
Mean Duration (IFN-β 500,000 IU/mouse SC QD): 13.9 ± 6.1 days
Mean Onset (IFN-β 500,000 IU/mouse SC QD): 14.7 ± 5.1 days
Mortality (IFN-β 500,000 IU/mouse SC QD): 0/13
GMS value (group mean score) [2]: 1.7 ± 0.4
Incidence [2]: 13/13
MMS value (mean maximal score) [2]: 3.1 ± 0.3
Mean Duration [2]: 17.5 ± 1.7 days
Mean Onset [2]: 12.9 ± 1.3 days
Mortality [2]: 0/13
% inhibition 1 (incidence) [2]: 0%
% inhibition 2 (MMS) [2]: 3.1%
% inhibition 3 (GMS) [2]: 15.0%
% inhibition 1 (incidence) (IFN-β 500,000 IU/mouse SC QD): 7.7%
% inhibition 2 (MMS) (IFN-β 500,000 IU/mouse SC QD): 46.9%
% inhibition 3 (GMS); Activity (IFN-β 500,000 IU/mouse SC QD): 55%
% inhibition 3 (GMS); Activity [3]: 55%
GMS value (group mean score) [3]: 0.9
GMS value (group mean score) [4]: 1.3 ± 1.1
Incidence [4]: 10/13
MMS value (mean maximal score) [4]: 2.3 ± 1.7
Mean Duration [4]: 12.2 ± 8.7 days
Mean Onset [4]: 16.5 ± 8.4 days
Mortality [4]: 0/13
% inhibition 1 (incidence) [4]: 23.1%
% inhibition 2 (MMS) [4]: 28.1%
% inhibition 3 (GMS) [4]: 35.0%
